Literature values as cited in patent US20190248834A1, “ENDOMORPHIN-2, TETRAPEPTIDE DERIVATIVES THEREOF, AND USES THEREOF” (priority 2016, published 2019).

Chains of the proteins cited; added tags and fusions are not shown.
UniProt P32300, whole entry: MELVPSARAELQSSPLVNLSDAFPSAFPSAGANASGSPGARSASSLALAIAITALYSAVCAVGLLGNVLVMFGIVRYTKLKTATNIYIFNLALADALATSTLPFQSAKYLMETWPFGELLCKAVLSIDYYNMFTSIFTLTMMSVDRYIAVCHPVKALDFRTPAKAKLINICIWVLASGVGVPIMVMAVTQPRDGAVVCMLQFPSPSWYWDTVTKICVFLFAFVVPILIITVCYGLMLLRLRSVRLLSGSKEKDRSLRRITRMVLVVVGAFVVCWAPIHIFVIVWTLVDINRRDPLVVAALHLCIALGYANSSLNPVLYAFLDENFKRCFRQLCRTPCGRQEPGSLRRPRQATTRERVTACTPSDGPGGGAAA

Molecular target: delta receptors (Mus musculus, UniProt P32300)
Details: mouse brain; cited from earlier work

Row | Substance | affinity for delta receptors
1 | Tyr-Pro-Trp-Phe-NH2 [reference compound] | did not have any affinity
2 | Tyr-Pro-Phe-Phe-NH2 | did not have any affinity
